Reference: patent publication US20210139484A1, “DIHYDROISOQUINOLINE-2(1H)-CARBOXAMIDE AND RELATED COMPOUNDS AND THEIR USE IN TREATING MEDICAL CONDITIONS” (GOSSAMER BIO SERVICES, INC., priority 2018, published 2021)

Chains of the proteins cited; added tags and fusions are not shown. Residues count along the entry.
UniProt Q92918, 1-346 limits assumed: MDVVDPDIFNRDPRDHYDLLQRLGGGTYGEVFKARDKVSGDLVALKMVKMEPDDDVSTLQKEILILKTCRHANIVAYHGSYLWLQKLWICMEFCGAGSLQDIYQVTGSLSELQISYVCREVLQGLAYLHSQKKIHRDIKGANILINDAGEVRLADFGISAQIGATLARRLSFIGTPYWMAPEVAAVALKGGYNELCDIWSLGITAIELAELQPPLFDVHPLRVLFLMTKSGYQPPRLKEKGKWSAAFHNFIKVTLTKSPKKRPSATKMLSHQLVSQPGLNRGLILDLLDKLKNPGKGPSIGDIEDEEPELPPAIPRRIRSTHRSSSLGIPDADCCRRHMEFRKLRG

Biological target: human HPK1 protein (Homo sapiens, UniProt Q92918)
Assay: Human HPK1 protein TR-FRET assay
Conditions: 1 mM ATP
Experimental: Exemplary compounds from the above Examples were tested for ability to inhibit HPK1 using a human HPK1 protein TR-FRET Assay. Assay procedures and results are described below.
N-terminal GST-tagged recombinant human HPK1 protein (a.a. 1-346) was expressed in Sf9 insect cells using a baculovirus expression system (Signalchem Catalog #M23-11G). The enzyme was diluted in assay buffer (50 mM Tris pH 7.5, 1 mM MgCl2, 0.01% NP-40 and 2 mM DTT) to obtain a 4× working solution at a concentration of 40 nM HPK1 enzyme.
A 5 μM stock of ULight™ CREBtide peptide RRPSYRK (Perkin Elmer Product No. TRF0107-M) derived from human cAMP Response Element Binding (CREB) Protein was prepared in storage buffer containing 50 mM Tris-HCl (pH 7.4), 0.9% NaCl, 0.1% BSA, and 0.05% sodium azide. The CREBtide substrate was diluted in assay buffer (50 mM Tris pH 7.5, 1 mM MgCl2, 0.01% NP-40, 2 mM DTT) with 2 mM ATP to a final concentration of 200 nM CREBtide peptide to obtain a 2× working solution of substrate. HPK1 enzyme and CREBtide substrate solutions were mixed with compounds diluted in DMSO to obtain a final concentration of enzyme, substrate, and ATP of 10 nM, 100 nM, and 1 mM, respectively, in 1% DMSO. The final assay mixture was incubated at room temperature for 60 minutes.
A solution of Europium-labeled anti-phospho-CREB (Ser133) antibody (Perkin Elmer Product No. TRF0200-M), EDTA and LANCE™ Detection Buffer (Perkin Elmer Product No. CR97-100) were added to each well to obtain a final concentration of 2 nM antibody, 10 mM EDTA and 1× LANCE buffer. The resulting mixture was incubated at room temperature for 60 minutes.
The fluorescence resonance energy transfer (FRET) signal was measured on an Envision plate reader: Excitation filter=340 nm, APC emission=665 nm, Europium emission=615 nm, dichroic mirror=D400/D630, delay time=100 μs, and integration time=200 μs. The half maximal inhibitory concentration (IC50) values for compounds were calculated from the quotient of the fluorescence signal at 665 nm divided by the fluorescence signal at 615 nm. The quotient of the fluorescence signals in the presence of DMSO without compound is set as 100 percent enzymatic activity. A 4-parameter logistic model in PRISM (GraphPad) was used to calculate the IC50 for a given compound.

Compound	IC50 (Table 20) [nM]	IC50 (Table 19) [nM]
CC[C@H]1CN(C(=O)Nc2ccc(CN3CCN(C)CC3)c(C(F)(F)F)c2)Cc2cc(Oc3ccnn4cc(C(=O)NC)cc34)cnc21	< 500	–
CC[C@H]1CN(C(=O)Nc2cnc(OC3CCN(C)CC3)c(C(F)(F)F)c2)Cc2cc(Oc3ccnc4[nH]c(C5CC5)cc34)cnc21	< 500	–
CC[C@H]1CN(C(=O)Nc2ccc(CN3CCN(C)CC3)c(C(F)(F)F)c2)Cc2cc(Oc3ccnc4[nH]c(C(C)=O)cc34)cnc21	< 500	–
CC[C@@H]1CN(C(=O)Nc2ccc(CN3CCN(CC)CC3)c(C(F)(F)F)c2)Cc2cc(Oc3ccnc4[nH]ccc34)cnc21	< 500	–
CC[C@H]1CN(C(=O)Nc2ccc(CN3CCN(C)CC3)c(C(F)(F)F)c2)Cc2cc(Oc3ccnc4[nH]c(C(=O)N5CC[C@@H](O)C5)cc34)cnc21	< 500	–
CC[C@H]1CN(C(=O)Nc2ccc(CN3CCN(CCO)CC3)c(C(F)F)c2)Cc2cc(Oc3ccnc4[nH]c(CO)cc34)ccc21	< 500	–
CCN1CCN(Cc2ccc(NC(=O)N3CCc4ccc(Nc5ccnc6[nH]ccc56)cc4C3)cc2C(F)(F)F)CC1	–	< 500
CC[C@H]1CN(C(=O)Nc2ccc(CN3CCN(C)CC3)c(C(F)(F)F)c2)Cc2cc(Oc3ccnn4cc(C(=O)N(C)C)cc34)cnc21	< 500	–
CC[C@H]1CN(C(=O)Nc2ccc(CN3CCN(CC)CC3)c(C(F)(F)F)c2)Cc2cc(Oc3ccnc4[nH]c(C5CC5)cc34)cnc21	< 500	–
CC[C@@H]1CN(C(=O)Nc2cnc(CN3CCN(CC)CC3)c(C(F)(F)F)c2)Cc2cc(Oc3ccnc4[nH]c(C#N)cc34)cnc21	< 500	–
CCN1CCN(Cc2ccc(NC(=O)N3Cc4cc(Oc5ccnc6c5CCC(=O)N6)cnc4C(C)C3)cc2C(F)(F)F)CC1 (single isomer, unassigned)	< 500	–
CC[C@@H]1CN(C(=O)Nc2cnc(O[C@@H]3CCN(C)C3)c(C(F)(F)F)c2)Cc2cc(Oc3ccnc4[nH]c(C)cc34)cnc21	500 to 5000	–
CC[C@H]1CN(C(=O)Nc2ccc(CN3CCN(CCO)CC3)c(C(F)(F)F)c2)Cc2cc(Oc3ccnc4[nH]c(C5CC5)cc34)ccc21	< 500	–
C[C@@H]1CN(C(=O)Nc2ccc(CN3CCN(C)CC3)c(C(F)(F)F)c2)Cc2cc(Oc3ccnc4[nH]c(C5(O)CC5)cc34)cnc21	< 500	–
C[C@@H]1CN(C(=O)Nc2ccc(CN3CCN(C)CC3)c(C(F)(F)F)c2)Cc2cc(Oc3ccnc4[nH]c(C#N)cc34)ccc21	< 500	–
CN1CCN(Cc2ccc(NC(=O)N3CCc4ccc(Oc5ccnc6[nH]c(C(=O)N(C)C)cc56)cc4C3)cc2C(F)(F)F)CC1	< 500	–
CC[C@H]1CN(C(=O)Nc2ccc(CN3CCN(CC)CC3)c(C(F)(F)F)c2)Cc2cc(Oc3ncnc4[nH]c(C5CC5)cc34)cnc21	< 500	–
CC[C@H]1CN(C(=O)Nc2ccc(CN3CCNCC3)c(C(F)(F)F)c2)Cc2cc(Oc3ccnc4[nH]c(C5(O)COC5)cc34)cnc21	< 500	–
CN(C)C(=O)c1cc2c(Oc3ccc4c(c3)CN(C(=O)Nc3ccc(CN5CCNCC5)c(C(F)(F)F)c3)CC4)ccnc2[nH]1	< 500	–
CC[C@H]1CN(C(=O)Nc2ccc(CN3CCN(C)CC3)c(C(F)F)c2)Cc2cc(Oc3ccnc4[nH]c(C#N)cc34)ccc21	< 500	–
CC[C@@H]1CN(C(=O)Nc2ccc(CN3CCN(CC)CC3)c(C(F)(F)F)c2)Cc2cc(Oc3ccnc4[nH]c(CCOC)cc34)cnc21	< 500	–

Results, then the molecule that gave them:

IC50 (Table 20) [nM]	IC50 (Table 19) [nM]	Compound
< 500	–	CCN1CCN(Cc2ccc(NC(=O)N3Cc4cc(Oc5ccnc6[nH]c(CO)cc56)cnc4[C@@H](C)C3)cc2C(F)(F)F)CC1
< 500	–	CCN1CCN(Cc2ccc(NC(=O)[C@H]3Cc4cc(Oc5ccnc6[nH]ccc56)cnc4[C@@H](C)C3)cc2C(F)(F)F)CC1 (relative stereo)
< 500	–	CC[C@@H]1CN(C(=O)Nc2ccc(CN3CCN(C)CC3)c(C(F)(F)F)c2)Cc2cc(Oc3ccnc4[nH]c(C#N)cc34)cnc21
< 500	–	CC[C@H]1CN(C(=O)Nc2ccc(CN3CCNCC3)c(C(F)(F)F)c2)Cc2cc(Oc3ccnc4[nH]c(C#N)cc34)cnc21
5000 to 10000	–	Cc1cc2c(Oc3cnc4c(c3)CN(C(=O)Nc3ccc(CN5C[C@@H]6C[C@H]5CN6C)c(C(F)(F)F)c3)C[C@H]4C)ccnc2[nH]1
< 500	–	CC[C@H]1CN(C(=O)Nc2ccc(CN3CCN(C)CC3)c(C(F)(F)F)c2)Cc2cc(Oc3ccnc4[nH]c(C5(O)COC5)cc34)ccc21
–	< 500	CCN1CCN(Cc2ccc(NC(=O)N3Cc4cc(Oc5ccnc6[nH]ccc56)ccc4CC3C)cc2C(F)(F)F)CC1 (stereo not drawn)
< 500	–	CC[C@H]1CN(C(=O)Nc2ccc(CN3CCN(C)CC3)c(C(F)F)c2)Cc2cc(Oc3ncnc4[nH]c(C5CC5)cc34)ccc21
< 500	–	CC[C@H]1CN(C(=O)Nc2ccc(CN3CCNCC3)c(C(F)(F)F)c2)Cc2cc(Oc3ccnc4[nH]c(C5(O)COC5)cc34)ccc21
< 500	–	CC[C@@H]1CN(C(=O)Nc2ccc(CN3CCN(C)CC3)c(C(F)(F)F)c2)Cc2cc(Oc3ccnc4[nH]c(C#N)cc34)ccc21
< 500	–	CC[C@H]1CN(C(=O)Nc2ccc(CN3CCN(C)CC3)c(C(F)F)c2)Cc2cc(Oc3ccnc4[nH]c(C5(O)COC5)cc34)ccc21
< 500	–	CC[C@@H]1CN(C(=O)Nc2cnc(CN3CCN(CC)CC3)c(C(F)(F)F)c2)Cc2cc(Oc3ccnc4[nH]c(C5CC5)cc34)cnc21
< 500	–	C[C@@H]1CN(C(=O)Nc2ccc(CN3CCN(CCO)CC3)c(C(F)(F)F)c2)Cc2cc(Oc3ccnc4[nH]c(C#N)cc34)ccc21
< 500	–	CC[C@@H]1CN(C(=O)Nc2ccc(CN3CCN(C)CC3)c(C(F)F)c2)Cc2cc(Oc3ccnc4[nH]c(C5(O)COC5)cc34)cnc21
< 500	–	CCN1CCN(Cc2ccc(NC(=O)N3Cc4cc(Oc5ccnc6[nH]c(C)cc56)ccc4C(C#N)C3)cc2C(F)(F)F)CC1 (stereo not drawn)
< 500	–	CC[C@H]1CN(C(=O)Nc2cnc(OC3CCN(C)CC3)c(C(F)(F)F)c2)Cc2cc(Oc3ccnc4[nH]c(C#N)cc34)cnc21
< 500	–	CC[C@H]1CN(C(=O)Nc2ccc(CN3CCN(CC)CC3)c(C(F)(F)F)c2)Cc2cc(Oc3ccnc4[nH]c(CO)cc34)cnc21
< 500	–	CC[C@H]1CN(C(=O)Nc2ccc(CN3CCNCC3)c(C(F)(F)F)c2)Cc2cc(Oc3ccnc4[nH]c(C(=O)N(C)C)cc34)cnc21
5000 to 10000	–	CC[C@H]1CN(C(=O)Nc2ccc(CN3CCNCC3)c(C(F)(F)F)c2)Cc2cc(Oc3ccnn4cc(C(=O)N(C)C)nc34)cnc21
< 500	–	CC[C@@H]1CN(C(=O)Nc2ccc(CN3CCN(C)CC3)c(C(F)F)c2)Cc2cc(Oc3ccnc4[nH]c(C5CC5)cc34)cnc21
< 500	–	CC[C@@H]1CN(C(=O)Nc2ccc(CN3CCN(C)CC3)c(C(F)F)c2)Cc2cc(Oc3ccnc4[nH]c(CO)cc34)cnc21
< 500	–	CC[C@H]1CN(C(=O)Nc2ccc(CN3CCN(CCO)CC3)c(C(F)F)c2)Cc2cc(Oc3ccnc4[nH]c(C5CC5)cc34)ccc21
< 500	–	CC[C@H]1CN(C(=O)Nc2cnc(OC3CCN(C)CC3)c(C(F)(F)F)c2)Cc2cc(Oc3ccnc4[nH]c(C5(O)CC5)cc34)cnc21
< 500	–	CC[C@H]1CN(C(=O)Nc2ccc(CN3CCN(C)CC3)c(C(F)(F)F)c2)Cc2cc(Oc3ccnc4[nH]c(C(=O)NCCO)cc34)cnc21
< 500	–	CC[C@H]1CN(C(=O)Nc2ccc(CN3CCN(CC)CC3)c(C(F)(F)F)c2)Cc2cc(Oc3ccnc4[nH]ccc34)cnc21
< 500	–	CC[C@H]1CN(C(=O)Nc2ccc(CN3CCN(C)CC3)c(C(F)(F)F)c2)Cc2cc(Oc3ncnc4[nH]c(C(=O)N(C)C)cc34)cnc21
500 to 5000	–	CC[C@H]1CN(C(=O)Nc2ccc(CN3CCN(C)CC3)c(C(F)(F)F)c2)Cc2cc(Oc3ccnn4cc(C(=O)N(C)C)nc34)cnc21
< 500	–	CC[C@H]1CN(C(=O)Nc2ccc(CN3CCN(C)CC3)c(C(F)F)c2)Cc2cc(Oc3ccnc4[nH]c(CO)cc34)ccc21
< 500	–	CC[C@H]1CN(C(=O)Nc2ccc(CN3CCN(C)CC3)c(C(F)(F)F)c2)Cc2cc(Oc3ccnc4[nH]c(-c5n[nH]c(C)n5)cc34)cnc21
< 500	–	CCN1CCN(Cc2ccc(NC(=O)[C@@H]3Cc4cc(Oc5ccnc6[nH]ccc56)cnc4[C@@H](C)C3)cc2C(F)(F)F)CC1 (relative stereo)
